This is an account of results in US9878999B2, “Proteasome chymotrypsin-like inhibition using PI-1833 analogs” (H. Lee Moffitt Cancer Center and Research Institute, Inc., priority 2011, dated 2018).

This assay concerns the target CT-L activity of purified 20S proteasome (Homo sapiens, UniProt P20618+P28074). The assay can be described thus: in vitro CT-L activity of purified 20S proteasome. As to conditions: read-out: IC50 (μM) Chymotrypsin-like activity; Table 4. The format is biochemical.

As for `Cc1ccc(-c2noc(CN(C(=O)COc3ccc(Cl)cc3)C(C)C)n2)cc1`, the 50% inhibitory concentration (IC50) was 1.04 µM. The figure for `CC(C)N(Cc1nc(-c2ccccc2)no1)C(=O)COc1ccc(C(F)(F)F)cc1` is 0.38 µM.

As a reminder, the IC50 is the concentration needed to halve the response being measured.
